{"sequences": {"note": "The chains behind the UniProt entries cited, without tags or fusion partners. Where a name states a change or a piece, a line headed by the entry shows the natural chain unless it says otherwise.", "UniProt Q01727": "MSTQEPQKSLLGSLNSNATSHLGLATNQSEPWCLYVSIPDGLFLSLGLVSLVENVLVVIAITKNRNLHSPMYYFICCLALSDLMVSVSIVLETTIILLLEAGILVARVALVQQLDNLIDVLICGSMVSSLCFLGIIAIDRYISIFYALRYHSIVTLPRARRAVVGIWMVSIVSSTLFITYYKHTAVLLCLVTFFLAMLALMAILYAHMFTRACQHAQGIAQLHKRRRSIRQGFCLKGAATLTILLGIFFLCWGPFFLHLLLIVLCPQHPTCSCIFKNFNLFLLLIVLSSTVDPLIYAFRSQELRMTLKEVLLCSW"}, "source": "patent US11932628B2", "about": "“Selective small molecule peptidomimetic melanocortin ligands” (REGENTS OF THE UNIVERSITY OF MINNESOTA, priority 2021, dated 2024)", "target": "mMC1R (Mus musculus, UniProt Q01727)", "assay": "cAMP based functional bioassay (CRE/β-galactosidase reporter), agonist activity at mMC1R", "conditions": "read-out: mMC1R Mean ± SEM (agonist EC50); HEK-293 cells, mean of three or more experiments"}
{"smiles": "CC(=O)N[C@@H](Cc1c[nH]cn1)C(=O)N[C@H](Cc1ccccc1)C(=O)N[C@@H](CCCNC(=N)N)C(=O)N[C@@H](Cc1c[nH]c2ccccc12)C(N)=O", "note": "[Ac-His-DPhe-Arg-Trp-NH2, reference compound]", "values": [{"measurement": "EC50", "result": "13.4 ± 3.9", "unit": "nM"}]}
